Values of other authors as cited in patent publication US5583105A, “Oral pharmaceutical preparation” (Biogal Gyogyszerguar Rt, priority 1994, dated 1996).

Test system: white mouse

Substance: d-α-tocopheryl polyethylene glycol 1000 succinate [Vitamin E TPGS]
- LD50: > 5000 mg/kg
